# Experimental data taken from US9024017B2, “Octahydro-cyclopentapyrrolyl antagonists of CCR2” (Janssen Pharmaceutica NV, priority 2012, dated 2015).
# Sequences of proteins named here, by UniProt entry; tags and fusion partners are left off. A change or cut given only in a name is not applied to a line headed by its entry.
# UniProt P41597: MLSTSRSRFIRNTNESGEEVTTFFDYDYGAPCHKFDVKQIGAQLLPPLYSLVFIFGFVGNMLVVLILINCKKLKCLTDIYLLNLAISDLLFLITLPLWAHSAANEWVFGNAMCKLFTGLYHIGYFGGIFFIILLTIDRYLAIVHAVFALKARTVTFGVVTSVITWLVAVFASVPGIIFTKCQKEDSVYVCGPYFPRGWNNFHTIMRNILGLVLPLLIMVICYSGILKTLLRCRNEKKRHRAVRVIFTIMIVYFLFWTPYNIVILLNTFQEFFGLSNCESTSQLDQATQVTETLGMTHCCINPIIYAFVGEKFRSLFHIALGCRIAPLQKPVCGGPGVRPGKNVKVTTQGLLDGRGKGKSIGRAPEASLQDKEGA
# Biological target: T1, CCR2 (Homo sapiens, UniProt P41597)
# T1 construct: host or cells: THP-1 (human monocytic cell line)
# Test: MCP-1 Receptor Binding Assay in THP-1 Cells
# Details: read-out: MCP1B_v3 IC50
# Method: Compounds of the invention were subjected to various representative biological tests. […] MCP-1 Receptor Binding Assay in THP-1 Cells Human monocytic cell line THP-1 cells were obtained from American Type Culture Collection (Manassas, Va., USA). The THP-1 cells were grown in RPMI-1640 (RPMI: Roswell Park Memorial Institute Medium-cell culture growth media) supplemented with 10% fetal bovine serum in a humidified 5% CO2 atmosphere at 37° C. The cell density was maintained between […].
# THP-1 (cells were incubated with 0.5 nM ^125I labeled MCP-1 (Perkin-Elmer Life Sciences, Inc. Boston, Mass.) in the presence of varying concentrations of either unlabeled MCP-1 (R & D Systems, Minneapolis, Minn.) or test compound for 2 hours at 30° C. in a 96 well plate. Cells were then harvested onto a filter plate, dried, and 20 μL of Microscint 20 was added to each well. Plates were counted in a TopCount NXT, Microplate Scintillation & Luminescence Counter (Perkin-Elmer Life Sciences, Inc. Boston, Mass.). Blank values (buffer only) were subtracted from all values and drug treated values were compared to vehicle treated values. 1 μM cold MCP-1 was used for nonspecific binding.
row,SMILES,IC50
1,"COC1COCCC1N[C@@H]1C[C@H]2CN(C)C[C@@]2(C(=O)N2CCc3ncc(C(F)(F)F)cc3C2)C1 (relative stereo) [Example 97, ((3aR,5R,6aR)-5-(((3S*,4S*)-3-Methoxytetrahydro-2H-pyran-4-yl)amino)-2-methyloctahydrocyclopenta[c]pyrrol-3a-yl)(3-(trifluoromethyl)-7,8-dihydro-1,6-naphthyridin-6(5H)-yl)methanone]",0.3 µM
2,"COC1COCCC1N[C@@H]1C[C@H]2CNC[C@@]2(C(=O)N2CCc3ncc(C(F)(F)F)cc3C2)C1 (relative stereo) [Example 1, ((3aR,5R,6aR)-5-(((3S*,4S*)-3-Methoxytetrahydro-2H-pyran-4-yl)amino)octahydrocyclopenta[c]pyrrol-3a-yl)(3-(trifluoromethyl)-7,8-dihydro-1,6-naphthyridin-6(5H)-yl)methanone]",0.78 µM
3,"COC1COCCC1N[C@@H]1C[C@H]2CN(C(=O)/C=C/c3ccccc3)C[C@@]2(C(=O)N2CCc3ncc(C(F)(F)F)cc3C2)C1 (relative stereo) [Example 65, (E)-1-((3aR,5R,6aR)-5-(((3S*,4S*)-3-Methoxytetrahydro-2H-pyran-4-yl)amino)-3a-(3-(trifluoromethyl)-5,6,7,8-tetrahydro-1,6-naphthyridine-6-carbonyl)hexahydrocyclopenta-[c]pyrrol-2(1H)-yl)-3-phenylprop-2-en-1-one]",0.03 µM
